Experimental data as given in ChEMBL document CHEMBL4229484, “7β-Methyl substituent is a structural locus associated with activity cliff for nepenthone analogues” (2018).

Sequences of proteins named here, by UniProt entry; tags and fusion partners are left off.
UniProt P41145, whole entry: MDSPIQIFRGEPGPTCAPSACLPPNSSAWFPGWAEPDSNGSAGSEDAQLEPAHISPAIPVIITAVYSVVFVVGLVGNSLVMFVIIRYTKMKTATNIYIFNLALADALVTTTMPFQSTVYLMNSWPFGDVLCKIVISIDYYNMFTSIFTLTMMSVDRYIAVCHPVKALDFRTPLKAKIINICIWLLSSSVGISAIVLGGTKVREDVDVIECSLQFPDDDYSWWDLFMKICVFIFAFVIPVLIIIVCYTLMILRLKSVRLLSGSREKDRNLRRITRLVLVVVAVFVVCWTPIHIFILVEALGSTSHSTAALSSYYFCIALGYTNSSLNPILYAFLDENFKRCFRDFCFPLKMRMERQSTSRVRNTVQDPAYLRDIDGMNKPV
UniProt P33533, whole entry: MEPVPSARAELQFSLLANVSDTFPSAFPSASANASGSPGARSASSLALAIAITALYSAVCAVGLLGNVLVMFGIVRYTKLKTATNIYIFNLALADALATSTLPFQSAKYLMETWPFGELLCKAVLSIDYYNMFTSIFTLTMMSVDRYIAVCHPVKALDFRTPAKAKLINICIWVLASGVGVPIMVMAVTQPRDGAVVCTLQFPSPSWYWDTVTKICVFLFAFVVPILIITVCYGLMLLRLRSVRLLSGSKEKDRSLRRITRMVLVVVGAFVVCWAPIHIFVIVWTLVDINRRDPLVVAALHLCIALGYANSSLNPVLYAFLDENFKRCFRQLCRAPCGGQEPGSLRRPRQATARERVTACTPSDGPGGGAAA
UniProt P33535, whole entry: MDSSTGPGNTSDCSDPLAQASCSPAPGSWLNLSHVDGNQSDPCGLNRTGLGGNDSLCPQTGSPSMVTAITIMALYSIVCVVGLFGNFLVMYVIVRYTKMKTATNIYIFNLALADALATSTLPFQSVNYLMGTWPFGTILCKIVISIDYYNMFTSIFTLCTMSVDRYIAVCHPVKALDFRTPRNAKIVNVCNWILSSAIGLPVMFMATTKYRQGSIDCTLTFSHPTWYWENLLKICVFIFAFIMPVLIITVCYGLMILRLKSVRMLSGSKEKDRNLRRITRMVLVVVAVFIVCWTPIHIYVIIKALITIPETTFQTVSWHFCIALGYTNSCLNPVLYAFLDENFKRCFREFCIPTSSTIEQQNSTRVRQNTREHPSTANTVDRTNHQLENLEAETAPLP

Experiments:
[1] = species: Homo sapiens; test: Selectivity ratio of Ki for human MOR expressed in CHO cell membranes to Ki for human KOR expressed in CHO cell membranes
[2] = molecular target: Kappa-type opioid receptor (Homo sapiens) (UniProt P41145); test: Agonist activity at human KOR expressed in CHO cell membranes after 1 hr by [35S]GTPgammaS binding based liquid scintillation counting analysis relative to control
[3] = molecular target: Delta-type opioid receptor (Rattus norvegicus) (UniProt P33533); test: Agonist activity at rat DOR expressed in CHO cell membranes after 1 hr by [35S]GTPgammaS binding based liquid scintillation counting analysis relative to control
[4] = molecular target: Mu-type opioid receptor (Rattus norvegicus) (UniProt P33535); test: Agonist activity at rat MOR expressed in CHO cell membranes after 1 hr by [35S]GTPgammaS binding based liquid scintillation counting analysis relative to control
[5] = species: Homo sapiens; test: Selectivity ratio of Ki for human DOR expressed in CHO cell membranes to Ki for human KOR expressed in CHO cell membranes
[6] = molecular target: Kappa-type opioid receptor (Homo sapiens) (UniProt P41145); test: Agonist activity at human KOR expressed in CHO cell membranes at 10 uM after 1 hr by [35S]GTPgammaS binding based liquid scintillation counting analysis relative to control
[7] = molecular target: Kappa-type opioid receptor (Homo sapiens) (UniProt P41145); test: Agonist activity at human KOR expressed in CHO cell membranes at 1 uM after 1 hr by [35S]GTPgammaS binding based liquid scintillation counting analysis relative to control

Row | Compound | Ratio Ki [1] | Emax [3] [%] | other results
1 | COc1ccc2c3c1O[C@H]1[C@@]4(OC)CC[C@@]5(C[C@]4(C)OC(=O)c4ccc(C(F)(F)F)cc4)[C@@H](C2)N(CC2CC2)CC[C@]315 | 0.04 | – | –
2 | COc1ccc2c3c1O[C@H]1[C@@]4(OC)CC[C@@]5(C[C@]4(C)OC(=O)C(C)C)[C@@H](C2)N(CC2CC2)CC[C@]315 | 1.2 | – | –
3 | COc1ccc2c3c1O[C@H]1[C@@]4(OC)CC[C@@]5(C[C@]4(C)C(=O)c4ccc(-c6ccccc6)cc4)[C@@H](C2)N(CC2CC2)CC[C@]315 | – | 198 | Emax [2]: 181%
4 | COc1ccc2c3c1O[C@H]1[C@@]4(OC)CC[C@@]5(C[C@]4(C)C(=O)c4ccccc4)[C@@H](C2)N(CC2CC2)CC[C@]315 | 9 | 182 | Emax [2]: 213%; Emax [4]: 198%
5 | COc1cccc(C(=O)[C@@]2(C)C[C@@]34CC[C@]2(OC)[C@@H]2Oc5c(OC)ccc6c5[C@@]23CCN(CC2CC2)[C@@H]4C6)c1 | 0.4 | – | Ratio Ki [5]: 132
6 | COc1ccc2c3c1O[C@H]1[C@@]4(OC)CC[C@@]5(C[C@]4(C)OC(C)=O)[C@@H](C2)N(CC2CC2)CC[C@]315 | 0.8 | – | –
7 | COc1ccc2c3c1O[C@H]1[C@@]4(OC)CC[C@@]5(C[C@]4(C)C(O)c4ccc(-c6ccccc6)cc4)[C@@H](C2)N(CC2CC2)CC[C@]315 (stereo partly specified) | 0.06 | – | –
8 | COc1ccc2c3c1O[C@H]1[C@@]4(OC)CC[C@@]5(C[C@]4(C)C(O)c4ccccc4)[C@@H](C2)N(CC2CC2)CC[C@]315 (stereo partly specified) | 21 | – | –
9 | COc1ccc2c3c1O[C@H]1[C@@]4(OC)CC[C@@]5(C[C@]4(C)C=O)[C@@H](C2)N(CC2CC2)CC[C@]315 | 11 | 216 | Emax [6]: 155%; Emax [7]: 145%
10 | COc1ccc2c3c1O[C@H]1[C@@]4(OC)CC[C@@]5(C[C@]4(C)CO)[C@@H](C2)N(CC2CC2)CC[C@]315 | 11 | 232 | Emax [6]: 139%; Emax [4]: 218%; Emax [7]: 118%
11 | COc1cccc(C(O)[C@@]2(C)C[C@@]34CC[C@]2(OC)[C@@H]2Oc5c(OC)ccc6c5[C@@]23CCN(CC2CC2)[C@@H]4C6)c1 (stereo partly specified) | 3 | – | –
12 | COc1ccc2c3c1O[C@H]1[C@@]4(OC)C=C[C@@]5(C[C@@H]4C(=O)c4ccccc4)[C@@H](C2)N(CC2CC2)CC[C@]315 | 339 | 225 | Emax [2]: 212%; Emax [4]: 202%
13 | COc1ccc2c3c1O[C@H]1[C@@]4(OC)CC[C@@]5(C[C@]4(C)C(O)c4ccc(C(F)(F)F)cc4)[C@@H](C2)N(CC2CC2)CC[C@]315 (stereo partly specified) | 1.4 | – | –
14 | COc1ccc(C(=O)[C@@]2(C)C[C@@]34CC[C@]2(OC)[C@@H]2Oc5c(OC)ccc6c5[C@@]23CCN(CC2CC2)[C@@H]4C6)cc1 | 0.8 | 241 | Emax [2]: 178%; Emax [4]: 237%
15 | COc1ccc2c3c1O[C@H]1[C@@]4(OC)CC[C@@]5(C[C@]4(C)OC(=O)c4ccccc4)[C@@H](C2)N(CC2CC2)CC[C@]315 | 0.06 | – | –
16 | COc1ccc(C(O)[C@@]2(C)C[C@@]34CC[C@]2(OC)[C@@H]2Oc5c(OC)ccc6c5[C@@]23CCN(CC2CC2)[C@@H]4C6)cc1 (stereo partly specified) | 0.6 | – | –
17 | COc1ccc2c3c1O[C@H]1[C@@]4(OC)CC[C@@]5(C[C@]4(C)C(=O)c4ccc(C(F)(F)F)cc4)[C@@H](C2)N(CC2CC2)CC[C@]315 | – | 239 | Emax [2]: 175%
